The results in this text go back to the supplement of paper PMC7224384.

Structures are written as SMILES.

Assay [1] concerns MDA-MB-453. The assay is described as follows: drug sensitivity score (DSS), single agent (DSS (weighted AUC score)); higher = more sensitive (stronger viability decrease); extreme values may be limits of the assay. As to conditions: BLU9931 0 nM; 72 h. The gist of the method: (§1)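 Drug sensitivity scores come from a weighted area under a four-parameter logistic fit to percent viability, normalised per plate to control wells. Viability was based on cellular ATP read with CellTiterGlo 2.0 after 72 h at 37 °C, 5% CO2. Each 384-well plate carried FIMM Oncology set compounds in singlicate at five 10-fold dilutions, with 2000 MDA-MB-453 cells per well in medium with or without an FGFR4 inhibitor at 100 nM final.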

Assay [2] relates to MDA-MB-453. The assay is described as follows: drug sensitivity score (DSS), in combination with BLU9931 (DSS (weighted AUC score)); higher = more sensitive (stronger viability decrease); extreme values may be limits of the assay. As to conditions: BLU9931 100 nM; 72 h. The gist of the method: as §1

In the case of `NCc1ccc(OCCCc2sc(-c3ccc4c(c3)/C(=N/Nc3nc5ccccc5s3)CCC4)nc2C(=O)O)cc1` [WEHI-539], the drug sensitivity score in assay [1] and in assay [2] was 0 throughout.
